Data on 13 substances can be found in paper PMC3749136.

As usually defined, the Kd is the equilibrium constant for the complex coming apart.

For one test, the target named is GST-SOCS5-SH2 Elo B/C (UniProt O75159). The test is described as follows: SPR.
Details: not given
The substance EGF-R pY1092 phosphopeptide (wild type) showed a Kd of 0.87 µM.

Consider JAK1(pY1033) phosphopeptide, for which the Kd is 17 µM.

With JAK2(pY1007) phosphopeptide, the Kd amounted to 78 µM.

In the case of Shc-1 pY239 phosphopeptide, the fold tighter binding of Shc-1 pY317 than of this peptide turned out to be 25 fold. Consider Shc-1 pY317 phosphopeptide, for which the dissociation constant Kd was determined as 0.16 µM.

A further test addresses GST-SOCS5-SH2 Elo B/C, O75159;Q15370;Q15369. The test is described as follows: SPR (competitive binding assay, steady-state analysis). Conditions: competitor phosphopeptides 0.4–10 µM; immobilised Shc-1 pY317 peptide; parent: 0.87.
Regarding “EGF-R pY1092 phosphopeptide (wild type) E(-1)A”, the Kd was 1.07 µM. On the same count and under the same terms, the figure for “EGF-R pY1092 phosphopeptide (wild type) I(+1)A” is 12.6 µM. As to “EGF-R pY1092 phosphopeptide (wild type) N(+2)A”, the Kd turned out to be 13.3 µM. The same measure, in the same setting: under “EGF-R pY1092 phosphopeptide (wild type) P(-2)A” stands 4.52 µM; under “EGF-R pY1092 phosphopeptide (wild type) Q(+3)A”, 1.17 µM. Consider “EGF-R pY1092 phosphopeptide (wild type) S(+4)A”, for which the Kd came to 8.05 µM.

In the case of “EGF-R pY1092 phosphopeptide (wild type) V(+5)A”, the Kd is 1.45 µM. Regarding “EGF-R pY1092 phosphopeptide (wild type) V(-3)A”, the Kd turned out to be 1.82 µM.
